test system: JAK1-dependent STAT6 phosphorylation downstream of IL-13 stimulation in BEAS-2B cells

Q: For CN(C1CCN(C(=O)Cn2cc(Nc3nc4c(N5CC6CCC(C5)N6C(=O)N5CC(C(F)(F)F)C5)cccn4n3)cn2)CC1)C1COC1 [Example 62, 1-[4-[methyl(oxetan-3-yl)amino]piperidin-1-yl]-2-(4-[[8-(8-[[3-(trifluoromethyl)azetidin-1-yl]carbonyl]-3,8-diazabicyclo[3.2.1]octan-3-yl)-[1,2,4]triazolo[1,5-a]pyridin-2-yl]amino]-1H-pyrazol-1-yl)ethan-1-one], which IC50 is on record?
A: The IC50 was 98.4 nM.

Q: Which IC50 does the source give for CN1CCN(C(=O)Cn2cc(Nc3nc4c(N5CC6CCC(C5)N6C(=O)C5CCC(F)(F)CC5)cccn4n3)cn2)CC1 [Example 51, 2-[4-[[8-[8-(4,4-difluorocyclohexanecarbonyl)-3,8-diazabicyclo[3.2.1]octan-3-yl]-[1,2,4]triazolo[1,5-a]pyridin-2-yl]amino]pyrazol-1-yl]-1-(4-methylpiperazin-1-yl)ethanone] here?
A: The IC50 was 70.4 nM.

Q: Which IC50 does the source give for CN1CCN(C(=O)Cn2cc(Nc3nc4c(C5=CC6CCC(C5)N6C(=O)[C@H]5C[C@@H](C(F)(F)F)C5)cccn4n3)cn2)CC1 (some centres unmarked) [Example 20, 1-(4-methylpiperazin-1-yl)-2-[4-[[8-[8-[3-(trifluoromethyl)cyclobutanecarbonyl]-8-azabicyclo[3.2.1]oct-3-en-3-yl]-[1,2,4]triazolo[1,5-a]pyridin-2-yl]amino]pyrazol-1-yl]ethanone] here?
A: The IC50 was 33.2 nM.

Q: Cc1cc(S(=O)(=O)N2C3CCC2CN(c2cccn4nc(Nc5cnn(CC(=O)N6CCN(C)CC6)c5)nc24)C3)sn1 [Example 139, 2-[4-[[8-[8-(3-yl)sulfonyl-3,8-diazabicyclo[3.2.1]octan-3-yl]-[1,2,4]triazolo[1,5-a]pyridin-2-yl]amino]pyrazol-1-yl]-1-(4-methylpiperazin-1-yl)ethanone] was tested. Which IC50 did it give?
A: The IC50 was 18.6 nM.

Q: For CN1CCN(C(=O)Cn2cc(Nc3nc4c(N5CC6CCC(C5)N6Cc5ccccc5C#N)cccn4n3)cn2)CC1 [Example 63, 2-[[3-[2-[[1-[2-(4-methylpiperazin-1-yl)-2-oxo-ethyl]pyrazol-4-yl]amino]-[1,2,4]triazolo[1,5-a]pyridin-8-yl]-3,8-diazabicyclo[3.2.1]octan-8-yl]methyl]benzonitrile], which IC50 is on record?
A: The IC50 was 47.2 nM.

Q: With CN(C)C(=O)CN1CCN(CC2CCN(C(=O)Cn3cc(Nc4nc5c(N6CC7CCC(C6)N7C(=O)N6CC(C(F)(F)F)C6)cccn5n4)cn3)CC2)CC1 [Example 81, N,N-dimethyl-2-[4-[[1-[2-[4-[[8-[8-[3-(trifluoromethyl)azetidine-1-carbonyl]-3,8-diazabicyclo[3.2.1]octan-3-yl]-[1,2,4]triazolo[1,5-a]pyridin-2-yl]amino]pyrazol-1-yl]acetyl]-4-piperidyl]methyl]piperazin-1-yl]acetamide] as the compound, how does the IC50 read?
A: Its IC50 is 590 nM.

Q: Which IC50 does the source give for O=C(Cn1cc(Nc2nc3c(N4CC5CCC(C4)N5C(=O)N4CC(C(F)(F)F)C4)cccn3n2)cn1)N1CCC(CN2CCOCC2)CC1 [Example 121, 1-[4-(morpholinomethyl)-1-piperidyl]-2-[4-[[8-[8-[3-(trifluoromethyl)azetidine-1-carbonyl]-3,8-diazabicyclo[3.2.1]octan-3-yl]-[1,2,4]triazolo[1,5-a]pyridin-2-yl]amino]pyrazol-1-yl]ethanone] here?
A: The IC50 was 101 nM.

Q: How did the IC50 turn out when CN(C)C(=O)CN1CCN(CC2CCN(C(=O)Cn3cc(Nc4nc5c(N6CC7CCC(C6)N7C(=O)CCC(F)(F)F)cccn5n4)cn3)CC2)CC1 [Example 75, N,N-dimethyl-2-[4-[[1-[2-[4-[[8-[8-(4,4,4-trifluorobutanoyl)-3,8-diazabicyclo[3.2.1]octan-3-yl]-[1,2,4]triazolo[1,5-a]pyridin-2-yl]amino]pyrazol-1-yl]acetyl]-4-piperidyl]methyl]piperazin-1-yl]acetamide] was run?
A: Its IC50 is 436 nM.

Q: For CN1CCN(C(=O)Cn2cc(Nc3nc4c(N5C[C@H]6CC[C@@H](C5)[C@H]6OCc5ccccc5)cccn4n3)cn2)CC1 [Example 1, 2-[4-[[8-[(1S,5R)-8-benzyloxy-3-azabicyclo[3.2.1]octan-3-yl]-[1,2,4]triazolo[1,5-a]pyridin-2-yl]amino]pyrazol-1-yl]-1-(4-methylpiperazin-1-yl)ethanone], which IC50 is on record?
A: The IC50 was 11.7 nM.

Q: Which IC50 does the source give for CN1CCN(C(=O)Cn2cc(Nc3nc4c(N5CC6CCC(C5)N6C(=O)CC(F)(F)F)cccn4n3)cn2)CC1 [Example 12, 3,3,3-trifluoro-1-[3-[2-[[1-[2-(4-methylpiperazin-1-yl)-2-oxo-ethyl]pyrazol-4-yl]amino]-[1,2,4]triazolo[1,5-a]pyridin-8-yl]-3,8-diazabicyclo[3.2.1]octan-8-yl]propan-1-one] here?
A: The IC50 was 36.6 nM.

Q: Which IC50 does the source give for CN1CCN(C(=O)Cn2cc(Nc3nc4c(N5CC6CCC(C5)C6=CC#N)cccn4n3)cn2)CC1 [Example 118, 2-[3-[2-[[1-[2-(4-methylpiperazin-1-yl)-2-oxo-ethyl]pyrazol-4-yl]amino]-[1,2,4]triazolo[1,5-a]pyridin-8-yl]-3-azabicyclo[3.2.1]octan-8-ylidene]acetonitrile] here?
A: The IC50 was 23.4 nM.

Q: Which IC50 does the source give for CSC1CN(C(=O)N2C3CCC2CN(c2cccn4nc(Nc5cnn(CC(=O)N6CCN(C)CC6)c5)nc24)C3)C1 [Example 171, 1-(4-methylpiperazin-1-yl)-2-[4-[[8-[8-(3-methylsulfanylazetidine-1-carbonyl)-3,8-diazabicyclo[3.2.1]octan-3-yl]-[1,2,4]triazolo[1,5-a]pyridin-2-yl]amino]pyrazol-1-yl]ethanone] here?
A: The IC50 was 238 nM.

Q: Which IC50 does the source give for CN1CCN(C(=O)Cn2cc(Nc3nc4c(N5CC6CCC(C5)N6C(=O)C5CC5C(F)(F)F)cccn4n3)cn2)CC1 (centres unmarked) [Example 14, 1-(4-methylpiperazin-1-yl)-2-[4-[[8-[8-[2-(trifluoromethyl)cyclopropanecarbonyl]-3,8-diazabicyclo[3.2.1]octan-3-yl]-[1,2,4]triazolo[1,5-a]pyridin-2-yl]amino]pyrazol-1-yl]ethanone] here?
A: The IC50 was 27.9 nM.

Q: For CN1CCN(C(=O)Cn2cc(Nc3nc4c(N5CC6CCC(C5)N6C(=O)c5ccccc5C#N)cccn4n3)cn2)CC1 [Example 140, 2-[3-[2-[[1-[2-(4-methylpiperazin-1-yl)-2-oxo-ethyl]pyrazol-4-yl]amino]-[1,2,4]triazolo[1,5-a]pyridin-8-yl]-3,8-diazabicyclo[3.2.1]octane-8-carbonyl]benzonitrile], which IC50 is on record?
A: The IC50 was 24.6 nM.

Q: With CC(C)(C#N)CNC1CCN(C(=O)Cn2cc(Nc3nc4c(N5CC6CCC(C5)N6C(=O)N5CC(C(F)(F)F)C5)cccn4n3)cn2)CC1 [Example 131, 2,2-dimethyl-3-[[1-[2-[4-[[8-[8-[3-(trifluoromethyl)azetidine-1-carbonyl]-3,8-diazabicyclo[3.2.1]octan-3-yl]-[1,2,4]triazolo[1,5-a]pyridin-2-yl]amino]pyrazol-1-yl]acetyl]-4-piperidyl]amino]-propanenitrile] as the compound, how does the IC50 read?
A: The IC50 was 47.9 nM.

Q: Which IC50 does the source give for O=C(Cn1cc(Nc2nc3c(N4CC5CCC(C4)N5C(=O)N4CC(C(F)(F)F)C4)cccn3n2)cn1)N1CCC(N2CCOCC2)CC1 [Example 44, 1-(4-morpholino-1-piperidyl)-2-[4-[[8-[8-[3-(trifluoromethyl)azetidine-1-carbonyl]-3,8-diazabicyclo[3.2.1]octan-3-yl]-[1,2,4]triazolo[1,5-a]pyridin-2-yl]amino]pyrazol-1-yl]ethanone] here?
A: The IC50 was 57.5 nM.

Q: O=C(Cn1cc(Nc2nc3c(N4CC5CCC(C4)N5C(=O)N4CC(C(F)(F)F)C4)cccn3n2)cn1)N1CCN(C2CSC2)CC1 [Example 94, 1-[4-(thietan-3-yl)piperazin-1-yl]-2-[4-[[8-[8-[3-(trifluoromethyl)azetidine-1-carbonyl]-3,8-diazabicyclo[3.2.1]octan-3-yl]-[1,2,4]triazolo[1,5-a]pyridin-2-yl]amino]pyrazol-1-yl]ethanone] was tested. Which IC50 did it give?
A: The IC50 was 54.9 nM.

Q: CN1CCN(C(=O)Cn2cc(Nc3nc4c(N5C[C@H]6CC[C@@H](C5)[C@H]6OCc5ccc(C#N)cc5)cccn4n3)cn2)CC1 [Example 128, 4-[[(1S,5R)-3-[2-[[1-[2-(4-methylpiperazin-1-yl)-2-oxo-ethyl]pyrazol-4-yl]amino]-[1,2,4]triazolo[1,5-a]pyridin-8-yl]-3-azabicyclo[3.2.1]octan-8-yl]oxymethyl]benzonitrile] was tested. Which IC50 did it give?
A: The IC50 was 20.6 nM.

Q: Which IC50 does the source give for CN1CCN(C(=O)Cn2cc(Nc3nc4c(N5CC6CCC(C5)N6C(=O)C5(C#N)CCC5)cccn4n3)cn2)CC1 [Example 116, 1-[3-[2-[[1-[2-(4-methylpiperazin-1-yl)-2-oxo-ethyl]pyrazol-4-yl]amino]-[1,2,4]triazolo[1,5-a]pyridin-8-yl]-3,8-diazabicyclo[3.2.1]octane-8-carbonyl]cyclobutane-carbonitrile] here?
A: The IC50 was 157 nM.

Q: Which IC50 does the source give for CN1CCN(C(=O)Cn2cc(Nc3nc4c(N5CC6CCC(C5)N6C(=O)C5CC6CCC5O6)cccn4n3)cn2)CC1 (centres unmarked) [Example 53, 1-(4-methylpiperazin-1-yl)-2-[4-[[8-[8-(7-oxabicyclo[2.2.1]heptane-3-carbonyl)-3,8-diazabicyclo[3.2.1]octan-3-yl]-[1,2,4]triazolo[1,5-a]pyridin-2-yl]amino]pyrazol-1-yl]ethanone] here?
A: Its IC50 is 133 nM.

Q: How did the IC50 turn out when CN1CCN(C(=O)Cn2cc(Nc3nc4c(N5CC6CCC(C5)N6S(=O)(=O)c5ccc(C(F)(F)F)cc5)cccn4n3)cn2)CC1 [Example 135, 1-(4-methylpiperazin-1-yl)-2-[4-[[8-[8-(4-(trifluoromethyl)phenyl]sulfonyl-3,8-diazabicyclo[3.2.1]octan-3-yl]-[1,2,4]triazolo[1,5-a]pyridin-2-yl]amino]pyrazol-1-yl]ethanone] was run?
A: The IC50 was 14.7 nM.

Q: For O=C(Cn1cc(Nc2nc3c(N4CC5CCC(C4)N5C(=O)CCC(F)(F)F)cccn3n2)cn1)N1CCC(N2CCn3nccc3C2)CC1 [Example 179, 1-[3-[2-[[1-[2-[4-(6,7-dihydro-4H-pyrazolo[1,5-a]pyrazin-5-yl)-1-piperidyl]-2-oxo-ethyl]pyrazol-4-yl]amino]-[1,2,4]triazolo[1,5-a]pyridin-8-yl]-3,8-diazabicyclo[3.2.1]octan-8-yl]-4,4,4-trifluoro-butan-1-one; formic acid], which IC50 is on record?
A: The IC50 was 67.2 nM.

Q: How did the IC50 turn out when O=C(Cn1cc(Nc2nc3c(N4CC5CCC(C4)N5C(=O)CCC(F)(F)F)cccn3n2)cn1)N1CCN(C2CCC2)CC1 [Example 152, 1-[3-[2-[[1-[2-(4-cyclobutylpiperazin-1-yl)-2-oxo-ethyl]pyrazol-4-yl]amino]-[1,2,4]triazolo[1,5-a]pyridin-8-yl]-3,8-diazabicyclo[3.2.1]octan-8-yl]-4,4,4-trifluoro-butan-1-one] was run?
A: The IC50 was 22.6 nM.

From US10189836B2, “Therapeutic compounds, compositions and methods of use thereof” (Genentech, Inc., priority 2015, dated 2019)
